PubChem BioAssay (NCI)
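48-hour exposure; five concentrations; linearly interpolated endpoints. TGI marks complete inhibition of growth.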

Tested on: MOLT-4 leukemia
Test: NCI tumour cell line growth inhibition, 48 h

SMILES: O=[N+]([O-])C1([N+](=O)[O-])CCCc2nonc21
- TGI: 88.4 µM
